Literature values as cited in patent US6689383B1, “Chromium-histidine complexes as nutrient supplements” (The United States of America as represented by the …, priority 1999, dated 2004).

Settings: in vivo; cited from earlier work

Chromium polynicotinate
Absorption (in words): poorly-absorbed
